The source of these data is patent US20250144172A1, “ANTI-FIBROTIC SIALIDASE INHIBITOR COMPOUNDS AND METHODS OF USE” (The Texas A&M University System, priority 2016, published 2025).

Amino acid sequences for entries named in this document (tags omitted). A change or cut given only in a name is not applied to a line headed by its entry.
UniProt Q8WWR8: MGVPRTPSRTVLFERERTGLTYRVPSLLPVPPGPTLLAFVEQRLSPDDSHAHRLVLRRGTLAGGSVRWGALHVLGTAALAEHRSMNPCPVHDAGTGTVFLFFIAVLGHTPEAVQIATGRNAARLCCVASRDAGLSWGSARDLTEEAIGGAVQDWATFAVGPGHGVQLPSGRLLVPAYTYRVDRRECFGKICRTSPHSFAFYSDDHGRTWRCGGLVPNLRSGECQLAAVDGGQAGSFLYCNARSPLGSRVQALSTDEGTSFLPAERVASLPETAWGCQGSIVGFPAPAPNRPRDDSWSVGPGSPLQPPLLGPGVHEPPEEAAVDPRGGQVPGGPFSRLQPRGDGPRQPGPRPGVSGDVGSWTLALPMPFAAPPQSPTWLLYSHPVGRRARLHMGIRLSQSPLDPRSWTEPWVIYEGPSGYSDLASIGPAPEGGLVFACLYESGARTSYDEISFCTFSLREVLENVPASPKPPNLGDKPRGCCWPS
UniProt Q9UQ49: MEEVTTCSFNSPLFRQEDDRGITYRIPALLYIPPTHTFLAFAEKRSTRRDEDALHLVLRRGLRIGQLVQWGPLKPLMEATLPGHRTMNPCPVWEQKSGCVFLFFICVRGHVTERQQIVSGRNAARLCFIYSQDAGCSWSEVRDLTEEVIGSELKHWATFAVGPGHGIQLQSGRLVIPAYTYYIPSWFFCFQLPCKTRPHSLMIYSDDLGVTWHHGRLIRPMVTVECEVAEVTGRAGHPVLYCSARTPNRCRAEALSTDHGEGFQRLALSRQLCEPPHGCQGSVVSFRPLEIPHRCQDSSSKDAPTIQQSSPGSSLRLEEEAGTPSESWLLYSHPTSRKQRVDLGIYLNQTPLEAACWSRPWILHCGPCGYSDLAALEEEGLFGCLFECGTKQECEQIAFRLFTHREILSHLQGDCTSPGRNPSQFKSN

The subject of experiment [1] is mammalian sialidases. As to conditions: cited from earlier work.
Experiment [2] addresses human NEU4 (Homo sapiens (Human), UniProt Q8WWR8). Description: human NEU4 sialidase inhibition. As to conditions: read-out: NEU4 IC50.
In experiment [3] the target is human NEU3 (Homo sapiens (Human), UniProt Q9UQ49). Description: human NEU3 sialidase inhibition. The conditions noted are these: read-out: NEU3 IC50.

On to `CC(=O)N[C@H]1[C@H]([C@H](O)[C@H](O)CO)OC(C(=O)O)=C[C@@H]1O` [Compound 1, N-Acetyl-2,3-dehydro-2-deoxyneuraminic acid, reference compound], for which the “inhibition of mammalian sialidases” value in experiment [1] was “inhibits all mammalian sialidases”. Moreover, in experiment [2], the half-maximal inhibitory concentration (IC50) (in general, the concentration that inhibits the measured activity by half) turned out to be 74 µM.
In the case of `CC(=O)N[C@H]1C([C@@H](O)[C@@H](O)Cn2cc(C(C)(C)O)nn2)OC(C(=O)O)=C[C@@H]1O` (stereo partly drawn) [Compound 57], the 50% inhibitory concentration (IC50) in experiment [3] was 180 ± 40 µM.
